Results reported in US20250041294A1, “Synergistic compositions for use in the treatment of cancer” (Sartar Therapeutics Oy, priority 2021, published 2025).

Legend:
Format in all cases: cell-based
[1] = test system: GIST882, GOT3 and SA4 cell lines; assay: High throughput drug sensitivity and resistance test, average over cell lines (BAY2666605 combination)
[2] = test system: GIST882 cell line; assay: Drug combination testing with concentration matrices, SynergyFinder 2.0; conditions: combination with anagrelide, seven-concentration matrices
[3] = test system: GOT3 cell line; assay: as above; conditions: combination with anagrelide, seven-concentration matrices

Question: For CC(C)C[C@H](NC(=O)[C@H](Cc1ccccc1)NC(=O)c1cnccn1)B(O)O [Bortezomib, bortezomib], which “synergy in high-throughput screening (in words)” value [1] is on record?
Answer: synergistic

Question: Which “Average DSS (aDSS)” value ([1]; BAY2666605 combination, average of GIST882, SA4 and GOT3, aDSS higher than 3.0 = synergy) does the source give for CO[C@H]1C[C@@H]2CC[C@@H](C)[C@@](O)(O2)C(=O)C(=O)N2CCCC[C@H]2C(=O)O[C@H]([C@H](C)C[C@@H]2CC[C@@H](OP(C)(C)=O)[C@H](OC)C2)CC(=O)[C@H](C)/C=C(\C)[C@@H](O)[C@@H](OC)C(=O)[C@H](C)C[C@H](C)/C=C/C=C/C=C/1C [Ridaforolimus, ridaforolimus] here?
Answer: 4.0

Question: And the “Average ZIP synergy score” value [2]?
Answer: 3.9

Question: What about the “Average ZIP synergy score” value [3] of the same molecule?
Answer: 1.8
